# Apparent affinities of Ab-14 variants for a coronavirus HR2 peptide

Binding partner: SARS-CoV-2 spike HR2 peptide, sequence PDVDLGDISGINAS.

Each scFv is VH, a 15-residue (Gly4Ser)3 linker, VL, as in the parent Ab-14, and differs from it in the CDRs of the heavy chain only.
VH: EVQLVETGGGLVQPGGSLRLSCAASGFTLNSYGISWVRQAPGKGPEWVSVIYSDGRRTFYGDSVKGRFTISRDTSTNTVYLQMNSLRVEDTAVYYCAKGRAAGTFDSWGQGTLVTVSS
VL: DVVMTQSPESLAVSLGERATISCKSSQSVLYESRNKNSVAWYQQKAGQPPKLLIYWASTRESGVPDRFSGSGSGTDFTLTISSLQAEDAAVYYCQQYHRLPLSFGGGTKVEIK

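The parent was found by panning a naive human phage display library on the peptide. The library (AAYL49) carries one to three amino acid substitutions per variant, with no insertions or deletions. The scFvs were displayed on barcoded MATa yeast, the peptide on MATalpha yeast. After mating in shaken culture at 30 °C for 16 h, diploids were selected and their barcode pairs sequenced. Scores were corrected for input abundance and mapped to Kd with protein pairs of known affinity run in the same pool. There are three technical replicates.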

Substitutions are numbered in sequence along the VH above, starting at 1 (not Kabat). Affinities are written as log10 Kd with Kd in nM; a lower number is a better binder. Replicates are averaged; those with no signal do not enter the mean. Where no diploid with the target was found in any replicate, the entry reads "nd": below detection, most likely a poor binder, though not proof of it. For reference, the parent read 0.65 as the reference entry and 4.11 (one replicate of three) as a member of this library.

changes,mean log10 Kd (nM),replicates with signal
F27W+Y60V+T104W,4.81,2/3
G55S+G99V+A102L,3.90,1/3
T28G+R56I+T58S,nd,0/3
G55V+R57G,2.73,1/3
D54P+Y60A,4.90,2/3
G26F+G33I+S107G,4.44,2/3
F27E+R57N,4.08,1/3
G26K+R56P+R57H,3.40,1/3
T28Y+Y52R+K65Q,nd,0/3
F27T+L29E+G61T,nd,0/3
Y32T+S63N+F105L,4.90,2/3
S63D+A102P,1.27,3/3
T58S+D62K+G99T,6.04,1/3
I51R+S53T+R57H,4.19,2/3
F27T+S63T+G99D,4.13,1/3
Y32K+D54P+G103Y,nd,0/3
I34G+A102S+F105Q,3.33,2/3
F27T+A101E+S107T,0.17,3/3
T58S+R100Y+D106F,nd,0/3
G61W+D62F+T104L,nd,0/3
F27E+I34K+R57W,4.12,1/3
N30V+S31M+Y60A,nd,0/3
G61S+S63L+A102V,2.56,3/3
Y32Q+G33E+R56T,3.22,1/3
N30Y+S31C+F59W,2.55,3/3
G33Q+Y60I+D62K,nd,0/3
N30Q+V50T+G55Q,3.87,2/3
D54H+F59G+G99L,nd,0/3
G61Q+A101C+F105Y,3.16,3/3
D54W+G61V+G99E,nd,0/3
S31A+F59R+G61N,nd,0/3
G33P+R57W+A102L,5.35,2/3
I34L+F59S+A101Q,1.96,3/3
G33R+I51M+S53I,nd,0/3
Y52S+R57L+G61I,nd,0/3
V50D+G61K+T104K,4.05,3/3
Y52I+S53D+F105D,nd,0/3
T28H+V50H+R100H,nd,0/3
R100Y+T104F,nd,0/3
D62W+K65P+R100N,nd,0/3
Y32K+T58I+A101H,4.82,2/3
R56Y+T58V+F105T,2.94,3/3
G55C+T58G+S63N,5.93,2/3
G26N+F27S+F59I,nd,0/3
S53Q+R57T+G61L,3.90,3/3
I34C+S35M+T104I,nd,0/3
L29C+D54G+T58Q,nd,0/3
T28F+K65C,3.89,3/3
I51F+Y60C+S63V,nd,0/3
L29T+R57T,3.77,1/3
T28S+R57K+A101Y,nd,0/3
N30R+K65I+G99H,2.28,3/3
T58K+K65Y+R100G,2.18,3/3
V50E+S63N+F105M,nd,0/3
V50F+S53M+S107D,3.89,1/3

Excerpt, the first 5 entries:

changes,mean log10 Kd (nM),replicates with signal
F27W+Y60V+T104W,4.81,2/3
G55S+G99V+A102L,3.90,1/3
T28G+R56I+T58S,nd,0/3
G55V+R57G,2.73,1/3
D54P+Y60A,4.90,2/3

Three control strains display no target. For library AAYL49, 15% of the pairings with them gave a signal, with a median of 4.06 and one signal in twenty below 2.83, so weak values seen in few replicates may be background.

Source: Engelhart et al. 2022 (doi:10.1038/s41597-022-01779-4), MIT Lincoln Laboratory and A-Alpha Bio; data file from the FLAb repository.